Properties, as collected for the OPERA models

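OPERA's authors assembled the values from existing databases and did not measure them anew. A listed value is a point estimate from one report or more. Method, purity and exact conditions of the single measurements are not given. Where a salt, mixture or single isomer is drawn, the source does not say that exactly this form was tested. Some entries may be limits or estimates that an upstream database listed as plain numbers.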

The melting point is given in degrees Celsius.
The boiling point refers to atmospheric pressure (760 mmHg), by the definition of the set.
The octanol-water partition coefficient is given as log10; larger values mean a more lipophilic compound.
Solubility in water is on a log10 molar scale (set defined at 25 °C).
Vapor pressure is log10 of mmHg; the set covers 15 to 30 °C, mostly 20 to 25 °C.
The Henry's law constant is on a log10 scale in atm·m3/mol (set defined at 25 °C); higher favours air over water.
The unbound fraction in human plasma runs from 0 (all bound) to 1 (all free).
Intrinsic clearance (human, µL/min per 10^6 hepatocytes): higher is faster turnover, and 0 stands for none detected.
Cells with "–" have no entry in this list.

structure (SMILES)	name	MP (°C)	bp (°C)	logP (octanol/water)	log solubility (log10 mol/L)	log VP (log10 mmHg)	Henry's law constant (log10 atm·m3/mol)	plasma fu	Clint (µL/min/10^6 cells)
CCCCCC1(CC)C(=O)NC(=O)NC1=O	5-Ethyl-5-n-pentylbarbituric acid	135	–	–	-2.26	–	–	–	–
CCOP(=O)(C(=O)c1c(C)cc(C)cc1C)c1ccccc1 (stereo not given)	Ethyl phenyl(2,4,6-trimethylbenzoyl)phosphinate	–	–	2.91	-3.956	-5.803	–	–	–
CCCC(C)O[N+](=O)[O-] (stereo not given)	1-Methylbutyl nitrate	–	–	–	-2.48	0.71	–	–	–
C=CC(=O)OCCCCO	4-Hydroxybutyl prop-2-enoate	–	236.1	0.77	–	-2.267	–	–	–
CCOC(=O)CCSP(=S)(OC(C)C)OC(C)C	–	-89	–	3.83	-4.275	-3.645	–	–	–
CC1=C(C(=O)Nc2ccccc2)SCCO1	Carboxin	–	–	–	–	–	–	0.1758	24.41
COCC(=O)N(c1c(C)cccc1C)C(C)C(=O)OC (stereo not given)	Metalaxyl	–	295.9	–	–	–	–	0.7308	1.58
O=P(Oc1ccccc1)(Oc1ccccc1)Oc1cccc(OP(=O)(Oc2ccccc2)Oc2ccccc2)c1	Tetraphenyl m-phenylene bis(phosphate)	-13	–	4.93	–	–	–	–	–
Brc1ccc(Oc2cc(Br)c(Br)cc2Br)c(Br)c1	2,2',4,4',5-Pentabromodiphenyl ether	92.3	–	–	-8.111	–	–	–	–
C[C@]12CC[C@H]3[C@@H](C=CC4=CC(=O)CC[C@@H]43)[C@@H]1CC[C@@H]2O (stereo in doubt)	17beta-Hydroxyestra-4,6-diene-3-one	185.9	–	3.1	-3.723	-9.73	–	–	–
CCCCCCCC1(CC)C(=O)NC(=O)NC1=O	5-Ethyl-5-n-heptylbarbituric acid	118	–	–	-3.219	–	–	–	–
O=C(O)CCCCCNc1nc(NCCCCCC(=O)O)nc(NCCCCCC(=O)O)n1.OCCN(CCO)CCO.OCCN(CCO)CCO.OCCN(CCO)CCO	–	-32	–	–	–	-5.445	–	–	–
CCC1(c2ccccc2)C(=O)NC(=O)N(C)C1=O (stereo not given)	Mephobarbital	–	–	–	-2.54	–	–	0.5	–
C[C@]12CC[C@@H]3c4ccc(OC(=O)N(CCCl)CCCl)cc4CC[C@H]3[C@@H]1CC[C@@H]2O	Estramustine	–	–	5.7	-6.058	–	–	–	–
CN1[C@@H]2C[C@@H]3C[C@H]1[C@H](O)[C@H]2O3	Scopoline	108	248	–	–	–	–	–	–
CN(C)C(=S)[S-].CN(C)C(=S)[S-].CN(C)C(=S)[S-].[Fe+3]	Ferbam	–	–	-1.6	–	-6.552	–	–	–
Nc1ccc(Cl)cc1N	4-chloro-1,2-diaminobenzene	–	–	–	–	–	–	0.373	31.6
COC(=O)N(OC)c1ccccc1COc1ccn(-c2ccc(Cl)cc2)n1	–	–	–	–	-5.31	-9.71	-10.28	–	–
Cc1nn(-c2cc(NS(C)(=O)=O)c(Cl)cc2Cl)c(=O)n1C(F)F	Sulfentrazone	–	–	–	-2.699	–	–	–	5.71
CCCCCCCCCCCCOP(=S)([S-])OCCCCCCCCCCCC.CCCCCCCCCCCCOP(=S)([S-])OCCCCCCCCCCCC.[Zn+2]	–	-17	–	–	-3.853	–	–	–	–
N#CCCC(Br)(C#N)CBr (stereo not given)	1,2-Dibromo-2,4-dicyanobutane	–	–	–	-2.205	-4.299	–	–	–
Clc1ccc(C(Cl)(Cl)Cl)cn1	2-Chloro-5-trichloromethylpyridine	–	–	4	-3.368	–	–	–	–
CCOC(=O)C1(c2ccccc2)CCN(CCC(C#N)(c2ccccc2)c2ccccc2)CC1	Diphenoxylate	–	–	6.3	-2.75	–	–	0.155	–
O=c1[n-]c(=O)n(Cl)c(=O)n1Cl.[Na+]	Sodium dichloroisocyanurate	–	–	0	–	-4.347	–	–	–
N#CC1(N=NC2(C#N)CCCCC2)CCCCC1	1,1'-Diazene-1,2-diyldicyclohexanecarbonitrile	–	–	3.256	-4.862	-5.586	–	–	–
CCC(=NOC/C=C/Cl)C1=C(O)CC(C2CCOCC2)CC1=O (stereo partly drawn)	Tepraloxydim	–	–	–	-2.9	-6.693	-10.06	0.3826	3.35
ClC1=C(Cl)C2(Cl)C3C(Cl)C=CC3C1(Cl)C2(Cl)Cl (stereo not given)	Heptachlor	–	–	–	–	–	–	0.04333	4.574
COc1ccc(O)c(C(C)(C)C)c1	2-tert-Butyl-4-methoxyphenol	58	–	–	-2.603	-2.606	–	–	–
CCOP(=O)(SC(C)CC)N1CCSC1=O (stereo not given)	Fosthiazate	–	–	–	–	–	–	0.46	0
COc1c(C(C)(C)C)cc([N+](=O)[O-])c(C)c1[N+](=O)[O-]	Musk ambrette	–	–	4	-5.531	–	–	–	–
COc1cc(OC)nc(NC(=O)[N-]S(=O)(=O)c2ncccc2OCC(F)(F)F)n1.[Na+]	Trifloxysulfuron-sodium	–	–	0.023	-1.25	-8.068	–	0.00325	0

The first 4 entries again:

| structure (SMILES) | name | MP (°C) | bp (°C) | logP (octanol/water) | log solubility (log10 mol/L) | log VP (log10 mmHg) | Henry's law constant (log10 atm·m3/mol) | plasma fu | Clint (µL/min/10^6 cells) |
|---|---|---|---|---|---|---|---|---|---|
| CCCCCC1(CC)C(=O)NC(=O)NC1=O | 5-Ethyl-5-n-pentylbarbituric acid | 135 | – | – | -2.26 | – | – | – | – |
| CCOP(=O)(C(=O)c1c(C)cc(C)cc1C)c1ccccc1 (stereo not given) | Ethyl phenyl(2,4,6-trimethylbenzoyl)phosphinate | – | – | 2.91 | -3.956 | -5.803 | – | – | – |
| CCCC(C)O[N+](=O)[O-] (stereo not given) | 1-Methylbutyl nitrate | – | – | – | -2.48 | 0.71 | – | – | – |
| C=CC(=O)OCCCCO | 4-Hydroxybutyl prop-2-enoate | – | 236.1 | 0.77 | – | -2.267 | – | – | – |

Values as listed in the OPERA 2.9 repository of K. Mansouri.